Key:
[1] = Pharmacokinetic study, intravenous administration, plasma LC-MS/MS
Text: Eight healthy 8-month-old male beagles were obtained from the Chulalongkorn University Laboratory Animal Centre (CULAC), Chulalongkorn University. […] Food was provided twice a day, and water was available ad libitum. […] The animal experiments were approved by the Institutional Animal Care and Use Committee of the CULAC, Chulalongkorn University, Bangkok, Thailand (Protocol number 2073002, Approval date: February 21, 2020). All animal procedures were complied with the ethical principles and guidelines for the use of animals (National Research Council of Thailand, 2015). All animal experiments followed the ARRIVE reporting guidelines for documenting animal experiments.
(§1) One or two capsules containing the test substance were orally administered at 8:00 AM to the dogs following the experimental plan. […] The blood samples were centrifuged at 5000g for 10 min at 4 °C to collect plasma and then stored at − 80 °C until analysis. […] The volume of urine and weight of faeces were recorded and all samples were stored at − 80 °C until analysis. All dogs were reused with a washed out period of two weeks, to allow complete excretion of bioactive triterpenoids.
(§2) All biological samples (plasma, urine, and faeces) were subjected to protein precipitation to extract the major triterpenoids from the samples. Two hundred microliters of methanol with two internal standards (glycyrrhizin and glycyrrhetinic acid) was added to 50 µL of the biological sample and mixed for 10 min. Then, the sample was centrifuged at 12,000g for 10 min at 4 °C, and 10 µL of supernatant was injected into the LC–MS/MS system. Faeces samples were homogenised by adding methanol, then the mixture was centrifuged at 1500g for 10 min at 4 °C to collect the supernatant. In the case of the concentration of the biological sample exceeded the linear calibration curve; blank matrices were used to dilute before protein precipitation. For method validation, all major components in the biological sample of dog were determined and validated according to the previous reports with little modification.

[2] = Percent recovery of triterpenoids in urine and faeces
Procedure: as §1, §2
The LC–MS/MS system was set up according to a previous published method. In brief, an LCMS-8060 coupled with a triple quadrupole mass spectrometer was controlled by LabSolution software version 5.86 (Shimadzu Corp.). A Synergi Fusion-RP C18 column (Phenomenex Inc.) maintained at 40 °C was used as the stationary phase. The analysis was run using absolute methanol and 0.2% formic acid in water as the mobile phase.

[3] = Tolerability: physical appearance, body weight, haematology and blood chemistry pre-dose and 24 h post-dose
Procedure: as §1
To evaluate significant differences between the pre- and post-dose of the test substances to the health status of dogs, the biochemical data were compared by using Student’s t-test. PK solution software version 2.0 (Summit Research Services) was used to analyse pharmacokinetic parameters by non-compartmental analysis. Cmax and Tmax were directly determined from plasma concentration–time curves. AUC0-24 was calculated using the trapezoidal rule and extrapolated to time infinity by the equation AUC0-inf = AUC0–24 + (Clast/kel), where Clast is the last observed plasma concentration after dosing and kel is the elimination rate constant. MRT was calculated as AUMC0-inf/AUC0-inf, where AUMC0-inf is the area under the first moment concentration–time curve. Vd was equal to dose/C0, where C0 is the plasma concentration at time zero and CL was calculated as dose/AUC0-inf. […] Absolute bioavailability was calculated as (AUCp.o./DOSEp.o.)/(AUCi.v./DOSEi.v.) × 100. Relative bioavailability was calculated from (AUCCTS/DOSECTS)/(AUCECa/DOSEECa) × 100. Before performing the statistical analysis in SPSS version 22.0 (IBM Corp.), the Shapiro–Wilk test was used to determine whether the data were normally distributed. A paired Student’s t test or Wilcoxon signed-rank test was used to determine significant differences of pharmacokinetic parameters between the groups. The percent recovery of triterpenoid glycosides and triterpenic acids were calculated using the total amount of the test substance found in urine or faeces divided by the given dose. All data are expressed as the mean ± standard deviation except for Tmax and half-life, which were expressed as median (IQR). Differences were considered significant at p < 0.05.

[4] = Post-treatment, ASS 0.41 mg/kg i.v.

## asiaticoside
[1]; 0.41 mg/kg asiaticoside i.v.
  maximum plasma concentration of asiaticoside (Fig. 2b): approximately 3000 µg/L
[1]; 0.41 mg/kg asiaticoside i.v., 8 h
  plasma concentration of asiaticoside 8 h after dosing: 0.01 µg/mL
[1]; ASS 0.41 mg/kg i.v., mean ± SD
  AUC0-24 of asiaticoside: 3.207 ± 0.829 µg·h/mL
  AUC0-inf of asiaticoside: 3.218 ± 0.835 µg·h/mL
  CL of asiaticoside: 0.14 ± 0.04 L/h/kg
  Cmax of asiaticoside: 3.63 ± 1.322 µg/mL
  MRT of asiaticoside: 8.83 ± 3.31 h
  Vd of asiaticoside: 0.88 ± 0.30 L/kg
[1]; ASS 0.41 mg/kg i.v., median (IQR)
  Half-life of asiaticoside: 5.04 (2.32) h
[2]; ASS 0.41 mg/kg i.v., 0-24 h
  Percent recovery of asiaticoside in feces: 24.07 ± 7.71%
  Percent recovery of asiaticoside in urine: 30.27 ± 14.87%
[2]; ASS 0.41 mg/kg i.v., 24-48 h
  Percent recovery of asiaticoside in feces: 6.76 ± 5.95%
[2]; intravenous administration
  excretion route of parent triterpenoid glycosides: excreted via urine within 24 h
[3]; 24 h post-dose, all groups
  measured biochemical parameters (haematology, kidney, liver functions), pre-dose versus post-dose: no significant differences
[3]; [4]
  ALT: 53 ± 4 U/L
  AST: 30 ± 10 U/L
  Blood urea nitrogen: 11.4 ± 2.1 mg/dL
  Body weight: 11.87 ± 1.49
  Creatinine: 0.5 ± 0.1 mg/dL
  Hemoglobin: 12.1 ± 1.7 g/dL
  Physical appearance: Normal
  Platelet: 233 ± 109 x 103/µL
  Red blood cell: 5.23 ± 0.88 x 106/µL
  White blood cell: 10.17 ± 3.01 x 103/µL

Reference: publication PMC8861063, “Increase water solubility of Centellaasiatica extract by indigenous bioenhancers could improve oral bioavailability and disposition kinetics of triterpenoid glycosides in beagle dogs” (Scientific Reports, 2022)
